# Measurements reported in US9359314B2, “Thiazine amide derivative and pharmaceutical composition and use thereof” (Institute Of Pharmacology And Toxicology Academy Of …, priority 2012, dated 2016).
# Tested on: MDCK-MDR1 cells
# Experiment: Membrane permeability of MDCK-MDR1 monolayer cells (blood-brain barrier permeability model)
# Source text: MDCK-MDR1 cells are monolayer cells with high expression of a P-gp transporter after MDR1 genes are transfected in MDCK (Madin-Darby canine kidney epithelial cells). Due to the compactness of the monolayer cells and high expression of a pharmaceutical efflux protein, the cells have a similarity to the structure of the blood-brain barrier (BBB), and can be used as one of the models for evaluating the BBB permeability. Because the compounds of the present invention targeted at the central nervous system and were needed to permeate the BBB, the MDCK-MDR1 cells were applied to research the membrane permeability, and the BBB permeability was preliminarily evaluated. […]
# When 80% of the cells were fused, the cells were suspended with a complete culture medium, and inoculated into a Millicell plate according to 1×10^6-mL^−1. […] After cultured for 5 days, the cells were ready for transport experiment when the resistance achieves a platform (>2000 Ω·cm^2).
# The solution in the lower pools was collected at 0, 30, 90 and 120 min and stored at −20° C. for later measurement. The permeation amount of the Rho-123 in the lower pools was detected by a fluorescence spectrophotometer, wherein the transmission wavelength was set to […] and the excitation wavelength was set to 530 nm. […]
# The sample was detected by LC/MS. Concentration of each sample was quantified with a standard curve (50 nM-10000 nM).
substance,measurement,setting,value
Rhodamine 123 [reference compound],Papp value of positive quality control compound versus literature,"5 μmol·L^1 in HBSS, upper to lower pool",accorded with literature reports
same,Papp(×10^−6),"MDCK-MDR1 monolayer, direction not given",4.89 ×10^−6
